Key:
aggregates of Aβ(1-40) = target: T1, aggregates of Aβ(1-40) (Homo sapiens, UniProt P05067); assay: Inhibition of [125I]3 binding to aggregated Aβ(1-40) peptide in solution; conditions: 25° C.; mean±SEM of three independent experiments; read-out: Inhibition constants (Ki) on ligand binding to aggregates of Aβ(1-40) vs [^125I]3
T1 construct: The solid forms of peptides Aβ(1-40) and Aβ(1-42) were purchased; purchased Bachem (King of Prussia, Pa.)
Procedure: (§1) The solid forms of peptides Aβ(1-40) and Aβ(1-42) were purchased from Bachem (King of Prussia, Pa.). Aggregation of peptides were carried out by gently dissolving the peptide [0.5 mg/mL for Aβ(1-40) and 0.25 mg/mL for Aβ (1-42) in a buffer solution (pH 7.4) containing 10 mM sodium phosphate and 1 mM EDTA. The solutions were incubated at 37° C. for 36-42 h with gentle and constant shaking. Binding studies were carried out in 12×75 mm borosilicate glass tubes according to the procedure described with some modifications (Klunk, W. E., et al., Biol. Psychiatry 35:627 (1994)). Aggregated fibrils (10-50 nM in the final assay mixture) were added to the mixture containing […] of radioligands (0.01-0.5 nM) in 40% EtOH and 10% EtOH in a final volume of 1 mL for saturation studies. […] The mixture was incubated at room temperature for 3 h and the bound and the free radioactivity were separated by vacuum filtration through Whatman GF/B filters using a Brandel M-24R cell harvester followed by 2×3 mL washes of 10% ethanol at room temperature. Filters containing the bound I-125 ligand were counted in a gamma counter (Packard 5000) with 70% counting efficiency. The results of saturation and inhibition experiments were subjected to nonlinear regression analysis using software EBDA52 by which Kd and Ki values were calculated. […]

Chains of the proteins cited; added tags and fusions are not shown. Residues count along the entry.
UniProt P05067, 672-711 limits assumed: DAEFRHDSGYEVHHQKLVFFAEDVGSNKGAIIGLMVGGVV
UniProt P05067, 672-713 limits assumed: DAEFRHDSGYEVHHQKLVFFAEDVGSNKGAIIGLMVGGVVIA

aggregates of Aβ(1-42) = target: T2, aggregates of Aβ(1-42) (Homo sapiens, UniProt P05067); assay: Inhibition of [125I]3 binding to aggregated Aβ(1-42) peptide in solution; conditions: 25° C.; mean±SEM of three independent experiments; read-out: Inhibition constants (Ki) on ligand binding to aggregates of Aβ(1-42) vs [^125I]3
T2 construct: The solid forms of peptides Aβ(1-40) and Aβ(1-42) were purchased; purchased Bachem (King of Prussia, Pa.)
Procedure: as §1

Question: What does the source list for `Cc1ccc2c(c1)sc(-c1ccc(N(C)C)cc1)[n+]2C` [Thioflavin T, reference compound]?
Answer: Ki (aggregates of Aβ(1-40)): 116 ± 20 nM; Ki (aggregates of Aβ(1-42)): 294 ± 40 nM

— patent publication US20040131545A1, “Amyloid plaque aggregation inhibitors and diagnostic imaging agents” (Trustees of the University of Pennsylvania, priority 2001, published 2004)
